{
  "sequences": {"note": "Amino acid sequences for entries named in this document (tags omitted).", "UniProt P24462, whole entry, looked up": "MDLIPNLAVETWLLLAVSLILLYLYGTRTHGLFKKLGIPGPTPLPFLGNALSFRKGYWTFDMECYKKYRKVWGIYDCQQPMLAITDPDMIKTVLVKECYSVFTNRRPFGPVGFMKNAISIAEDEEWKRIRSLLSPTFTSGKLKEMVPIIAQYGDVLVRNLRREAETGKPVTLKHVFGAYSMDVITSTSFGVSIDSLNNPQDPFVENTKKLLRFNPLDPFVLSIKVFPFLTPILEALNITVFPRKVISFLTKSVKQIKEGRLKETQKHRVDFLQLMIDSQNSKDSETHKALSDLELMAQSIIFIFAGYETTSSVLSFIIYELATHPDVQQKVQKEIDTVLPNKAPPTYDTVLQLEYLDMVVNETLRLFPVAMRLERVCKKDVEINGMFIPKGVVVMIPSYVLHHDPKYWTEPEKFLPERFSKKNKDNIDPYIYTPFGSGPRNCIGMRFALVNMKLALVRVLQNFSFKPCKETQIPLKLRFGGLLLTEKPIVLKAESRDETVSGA"},
  "source": "PubChem BioAssay (NCATS)",
  "key": {"[1]": {"target": "Cytochrome P450 3A7 (Homo sapiens) (UniProt P24462)", "assay": "Cytochrome P450 family 3 subfamily A member 7 (CYP3A7) small molecule antagonists: luciferase qHTS assay (AID 1963596; further: nearly all actives have a fitted effect of over 40% in size; further: potency means the concentration at half of the fitted maximal effect)", "method_in_brief": "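Enzyme-substrate mix + cpd (DMSO), 10 min RT; + NADPH regen system, 1 h RT; + luciferin detection reagent, 20 min RT; luminescence read. Proluciferin substrate, P450-Glo format, 1536-well qHTS.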"}, "[2]": {"assay": "Cellular viability qHTS for adrenocortical cancer (ACC) cell line SW-13 (AID 1963989);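 further: cells grown in serum-free medium with ITS supplement; on the % scale 0 is the no-effect control and ±100 the full control effect; nearly all actives have a fitted effect of over 65% in size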", "details": "SW-13 ACC cells viability, CellTiter-Glo, 48 h; hits give low values"}, "[3]": {"assay": "Cellular viability qHTS for adrenocortical cancer (ACC) cell line NCI-H295R (AID 1963990); further: nearly all actives have a fitted effect of over 60% in size; further: potency means the concentration at half of the fitted maximal effect"}, "[4]": {"assay": "Viability qHTS for spleen associated tyrosine kinase inhibitor (SYKi) naive MV4-11 cells (AID 1963823); further: nearly all actives have a fitted effect of over 40% in size; further: potency means the concentration at half of the fitted maximal effect"}, "[5]": {"assay": "Viability qHTS for spleen associated tyrosine kinase inhibitor (SYKi) drug resistant MV4-11 cells (AID 1963824); further: nearly all actives have a fitted effect of over 35% in size; further: potency means the concentration at half of the fitted maximal effect", "method_in_brief": "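CellTiter-Glo luminescence, read 10 min after reagent addition, reports viability after a 72 hr compound exposure. Cells are an MV4-11 line made resistant to SYK inhibition, seeded at 500 per well onto compound-containing plates.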"}, "[6]": {"assay": "Quantitative highthroughput screen to assess conditional lethalithy of NOMO1 cells grown in RPMI1640 with untreated serum (RPMI+s) (AID 1963876);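 further: 100% = DMSO wells and 0% = empty wells without cells; nearly all actives have a fitted effect of over 35% in size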", "details": "NOMO1 AML cells in RPMI+serum, CellTiter-Glo viability, 48 h; at 45.8 µM (top of the series)", "method_in_brief": "(§1)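 Each medium arm—HPLM with 10% dialyzed FBS, or RPMI1640 with 5 mM glucose and 10% untreated or dialyzed FBS—was screened against an 11-point, 3-fold compound titration for 48 h at 37 °C, with CellTiter-Glo luminescence as endpoint.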"}, "[7]": {"assay": "Quantitative highthroughput screen to assess conditional lethalithy of NOMO1 cells grown in RPMI1640 with dialyzed fetal bovine serum (RPMI+ds) (AID 1963877)", "details": "NOMO1 in RPMI+dialyzed FBS viability, ATP luminescence, 48 h; at 45.8 µM (top of the series)", "method_in_brief": "as §1"}, "[8]": {"assay": "Quantitative highthroughput screen to assess conditional lethalithy of NOMO1 cells grown in Human Plasma-Like Medium with dialyzed fetal bovine serum (HPLM+ds) (AID 1963878)", "details": "NOMO1 AML cells in HPLM+ds, CellTiter-Glo viability, 48 h; at 45.8 µM (top of the series)", "method_in_brief": "as §1"}, "[9]": {"assay": "Quantitative highthroughput screen to assess conditional lethalithy of P12 Ichikawa cells grown in Human Plasma-Like Medium with dialyzed fetal bovine serum (HPLM+ds) (AID 1963879)", "details": "ATP luminescence, 48 h; at 45.8 µM (top of the series)"}, "[10]": {"assay": "Quantitative highthroughput screen to assess conditional lethalithy of P12 Ichikawa cells grown in RPMI1640 with dialyzed fetal bovine serum (RPMI+ds) (AID 1963880)", "details": "ATP luminescence, 48 h; at 45.8 µM (top of the series)"}, "[11]": {"assay": "Quantitative highthroughput screen to assess conditional lethalithy of P12 Ichikawa cells grown in RPMI1640 with untreated serum (RPMI+s) (AID 1963881)", "details": "ATP luminescence, 48 h; at 45.8 µM (top of the series)"}, "[12]": {"assay": "Quantitative highthroughput screen to assess conditional lethalithy of SEM cells grown in RPMI1640 with dialyzed fetal bovine serum (RPMI+ds) (AID 1963884)", "details": "SEM B-ALL cells, RPMI+dialyzed FBS, CellTiter-Glo viability, 48 h; at 45.8 µM (top of the series)", "method_in_brief": "as §1"}},
  "note": "Only a part is listed here, and it is no random draw. Records with an inconclusive call do not appear. Activity calls are given as the source filed them. The call rests on the fitted dose curve; in most records, active means well fitted curve in the direction sought with a large enough effect; inconclusive means small, poorly fitted or top-dose-only effect, or another doubt; inactive means no such curve, though single readings can be large; an effect the other way counts as inactive or inconclusive.",
  "data": [
    {"compound": "CN(C)C1(c2ccccc2)CCC2(CC1)OCCc1c2[nH]c2ccc(F)cc12", "note": "(stereo unspecified)", "values": [
      {"measurement": "Potency", "setting": "[1]", "value": "inactive"},
      {"measurement": "activity (max response)", "setting": "[2]", "value": "inactive: 1.53%"},
      {"measurement": "Potency", "setting": "[3]", "value": "inactive"}
    ]},
    {"compound": "CCNC(C)Cc1ccc2c(c1)OCO2", "note": "(stereo unspecified)", "values": [
      {"measurement": "activity (max response)", "setting": "[2]", "value": "inactive: -7.74%"},
      {"measurement": "Potency", "setting": "[3]", "value": "inactive"}
    ]},
    {"compound": "CN(C(=O)Cc1ccc(Cl)c(Cl)c1)[C@H]1CC[C@@]2(CCCO2)C[C@@H]1N1CCCC1", "values": [
      {"measurement": "Potency", "setting": "[4]", "value": "inactive"},
      {"measurement": "Potency", "setting": "[5]", "value": "inactive"},
      {"measurement": "activity (max response)", "setting": "[2]", "value": "inactive: -7.83%"},
      {"measurement": "Potency", "setting": "[3]", "value": "inactive"}
    ]},
    {"compound": "CCn1c(=O)n([C@@H]2CCN(CC3CCCCCCC3)C[C@H]2CO)c2ccccc21", "values": [
      {"measurement": "Potency", "setting": "[5]", "value": "active: 16.6 µM"},
      {"measurement": "Potency", "setting": "[3]", "value": "inactive"}
    ]},
    {"compound": "CCn1c(=O)n([C@@H]2CCN(CC3CCCCCCC3)C[C@@H]2CO)c2ccccc21", "values": [
      {"measurement": "viability", "setting": "[6]", "value": "inactive: 95.4%"},
      {"measurement": "viability", "setting": "[7]", "value": "inactive: 93%"},
      {"measurement": "viability", "setting": "[8]", "value": "inactive: 97.9%"},
      {"measurement": "viability", "setting": "[9]", "value": "inactive: 94.3%"},
      {"measurement": "viability", "setting": "[10]", "value": "inactive: 94.5%"},
      {"measurement": "viability", "setting": "[11]", "value": "inactive: 92.7%"},
      {"measurement": "viability", "setting": "[12]", "value": "inactive: 93.4%"}
    ]},
    {"compound": "NC(=O)Nc1ccc([As](=O)(O)O)cc1", "values": [
      {"measurement": "Potency", "setting": "[1]", "value": "inactive"},
      {"measurement": "Potency", "setting": "[4]", "value": "inactive"},
      {"measurement": "Potency", "setting": "[5]", "value": "inactive"},
      {"measurement": "activity (max response)", "setting": "[2]", "value": "inactive: 2.87%"},
      {"measurement": "Potency", "setting": "[3]", "value": "inactive"}
    ]},
    {"compound": "CN(C(=O)Cc1ccccc1)[C@H]1CC[C@@]2(CCCO2)C[C@@H]1N1CCCC1", "values": [
      {"measurement": "Potency", "setting": "[1]", "value": "active: 24.5 µM"},
      {"measurement": "Potency", "setting": "[4]", "value": "inactive"},
      {"measurement": "Potency", "setting": "[5]", "value": "inactive"},
      {"measurement": "activity (max response)", "setting": "[2]", "value": "inactive: -2.95%"},
      {"measurement": "Potency", "setting": "[3]", "value": "inactive"}
    ]},
    {"compound": "N[C@@H](Cc1ccc([N+]([O-])(CCCl)CCCl)cc1)C(=O)O", "values": [
      {"measurement": "Potency", "setting": "[4]", "value": "active: 1.18 µM"},
      {"measurement": "Potency", "setting": "[5]", "value": "active: 1.66 µM"},
      {"measurement": "Potency", "setting": "[3]", "value": "active: 11.2 µM"}
    ]}
  ]
}
